The values that follow are results of earlier work, collected in paper PMC6731456.

Amino acid sequences for entries named in this document (tags omitted). A change or cut given only in a name is not applied to a line headed by its entry. Residues count along the entry.
UniProt P35414: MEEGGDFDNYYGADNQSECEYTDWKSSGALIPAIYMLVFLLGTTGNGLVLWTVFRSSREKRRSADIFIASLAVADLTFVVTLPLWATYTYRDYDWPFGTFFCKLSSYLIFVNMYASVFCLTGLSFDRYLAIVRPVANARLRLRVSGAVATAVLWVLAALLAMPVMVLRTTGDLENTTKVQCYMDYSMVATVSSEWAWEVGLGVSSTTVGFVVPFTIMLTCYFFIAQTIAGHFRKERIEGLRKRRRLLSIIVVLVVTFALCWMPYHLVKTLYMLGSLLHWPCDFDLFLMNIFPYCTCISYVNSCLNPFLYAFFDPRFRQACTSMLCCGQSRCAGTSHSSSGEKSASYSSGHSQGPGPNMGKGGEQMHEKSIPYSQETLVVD
UniProt Q9ULZ1, 39-77: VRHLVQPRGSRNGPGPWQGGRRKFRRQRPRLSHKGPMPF

What is called Ki is the dissociation constant of the complex between target and ligand, obtained from inhibition or displacement. Broadly, the Kd is the free concentration of one partner at which half of the binding sites on the other are occupied at equilibrium, for simple one-to-one binding.

Data set [1] concerns the target Apelin receptor (Homo sapiens) (UniProt P35414). As to the kind of experiment: competition radioligand binding.
Data set [2] has the same target. The experiment in a line: radioligand binding.

“[Pyr1]apelin-13 apelin-13 (from UniProt Q9ULZ1)”: in data set [1], the inhibition constant (Ki) was 1.5 nM. As to “[125I]-[Nle75, Tyr77]apelin-36 apelin-36 (from UniProt Q9ULZ1)”, the Kd in data set [2] is 0.0063 nM. Regarding “[3H]-[Pyr1]-[Met75(O)]apelin-13 apelin-13 (from UniProt Q9ULZ1)”, the dissociation constant Kd in data set [2] was 2.5 nM. For the substance “[125I]-[Pyr1]-[Nle75, Tyr77]apelin-13 apelin-13 (from UniProt Q9ULZ1)”, in data set [2], the dissociation constant (Kd) is 0.02 nM. As for “[125I]apelin-13 apelin-13 (from UniProt Q9ULZ1)”, the Kd in data set [2] was 0.63 nM.
